Test results: PMC6876566 (Nature Communications, 2019)

Chains of the proteins cited; added tags and fusions are not shown.
human RPA complex (recombinant), UniProt P15927, whole entry, chain 2 of 3: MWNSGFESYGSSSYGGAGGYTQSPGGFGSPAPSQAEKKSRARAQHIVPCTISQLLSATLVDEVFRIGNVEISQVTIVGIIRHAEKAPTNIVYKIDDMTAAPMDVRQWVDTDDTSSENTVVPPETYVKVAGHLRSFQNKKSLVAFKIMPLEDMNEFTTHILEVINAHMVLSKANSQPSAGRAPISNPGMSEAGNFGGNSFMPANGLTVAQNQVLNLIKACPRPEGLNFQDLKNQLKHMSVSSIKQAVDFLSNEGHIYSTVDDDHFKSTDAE
human RPA complex (recombinant), UniProt P35244, whole entry, chain 3 of 3: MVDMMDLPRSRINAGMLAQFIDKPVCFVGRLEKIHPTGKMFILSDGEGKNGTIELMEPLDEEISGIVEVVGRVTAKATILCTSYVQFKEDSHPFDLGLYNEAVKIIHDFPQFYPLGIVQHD

Molecular target: T1, human RPA complex (recombinant) (human, UniProt P27694 1-616; P15927 1-270; P35244 1-121)
T1 construct: RPA70 (RPA1), human, subunit of the recombinant RPA complex; RPA32 (RPA2), human, subunit of the recombinant RPA complex; third subunit of RPA (RPA3, RPA14), human; named only in 'RPA1/2/3 complex'; also called purified RPA complex; RPA1/2/3 complex; source: E. coli, purified (Affi-Gel Blue, hydroxylapatite, Mono-Q); copies: + +
Assay: pull-down; biotin labeled single fork DNA on streptavidin beads incubated first with purified RPA1/2/3 complex for 30 min, then with GST-ZFP161; 40 mM Tris-HCl pH 7.5, 150 mM NaCl, 10 mM MgCl2, BSA, DTT, ATP, glycerol; proteins retained on DNA immunoblotted
Details: both partners purified

binding result: binds
B1: GST-ZFP161 (WT) (natural protein, UniProt O43829 1-449, looked up)
chain: MEFFISMSETIKYNDDDHKTLFLKTLNEQRLEGEFCDIAIVVEDVKFRAHRCVLAACSTYFKKLFKKLEVDSSSVIEIDFLRSDIFEEVLNYMYTAKISVKKEDVNLMMSSGQILGIRFLDKLCSQKRDVSSPDENNGQSKSKYCLKINRPIGDAADTQDDDVEEIGDQDDSPSDDTVEGTPPSQEDGKSPTTTLRVQEAILKELGSEEVRKVNCYGQEVESMETPESKDLGSQTPQALTFNDGMSEVKDEQTPGWTTAASDMKFEYLLYGHHREQIACQACGKTFSDEGRLRKHEKLHTADRPFVCEMCTKGFTTQAHLKEHLKIHTGYKPYSCEVCGKSFIRAPDLKKHERVHSNERPFACHMCDKAFKHKSHLKDHERRHRGEKPFVCGSCTKAFAKASDLKRHENNMHSERKQVTPSAIQSETEQLQAAAMAAEAEQQLETIACS
notes: ZFP161 (ZBTB14), 'WT' as against the N-, M- and C-terminal fragments; sub-cloned from pCMV6-Myc-ZFP161 (ORIGENE) into pGEX4T-2; also called GST-tagged ZFP161; source: E. coli, purified on glutathione beads (used on beads or eluted)
